Laboratory results reported in patent US12606561B2, “Substituted pyrazolo[1,5-a][1,3,5]triazines as CDK inhibitors” (QURIENT CO., LTD., priority 2018, dated 2026).

The chains behind the UniProt entries cited, without tags or fusion partners. Residues count along the entry.
UniProt Q00535, whole entry: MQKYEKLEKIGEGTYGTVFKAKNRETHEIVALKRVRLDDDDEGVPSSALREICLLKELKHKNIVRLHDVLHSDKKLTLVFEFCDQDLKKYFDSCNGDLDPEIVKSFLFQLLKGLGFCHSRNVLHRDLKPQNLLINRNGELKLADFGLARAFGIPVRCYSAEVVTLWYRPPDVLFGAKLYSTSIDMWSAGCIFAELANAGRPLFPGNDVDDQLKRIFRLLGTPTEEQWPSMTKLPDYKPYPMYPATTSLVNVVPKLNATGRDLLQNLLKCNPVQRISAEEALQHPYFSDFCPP
UniProt P50613, whole entry: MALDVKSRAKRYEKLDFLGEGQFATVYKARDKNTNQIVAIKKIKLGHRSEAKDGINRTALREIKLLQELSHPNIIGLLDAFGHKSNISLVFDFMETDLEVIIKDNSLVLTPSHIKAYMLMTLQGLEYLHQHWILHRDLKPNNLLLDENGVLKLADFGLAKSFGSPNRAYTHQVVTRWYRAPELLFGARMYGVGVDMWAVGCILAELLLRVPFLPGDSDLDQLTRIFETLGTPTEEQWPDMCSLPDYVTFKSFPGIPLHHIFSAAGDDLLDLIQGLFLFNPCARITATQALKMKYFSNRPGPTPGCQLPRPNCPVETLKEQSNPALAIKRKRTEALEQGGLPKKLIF
UniProt P06493, whole entry: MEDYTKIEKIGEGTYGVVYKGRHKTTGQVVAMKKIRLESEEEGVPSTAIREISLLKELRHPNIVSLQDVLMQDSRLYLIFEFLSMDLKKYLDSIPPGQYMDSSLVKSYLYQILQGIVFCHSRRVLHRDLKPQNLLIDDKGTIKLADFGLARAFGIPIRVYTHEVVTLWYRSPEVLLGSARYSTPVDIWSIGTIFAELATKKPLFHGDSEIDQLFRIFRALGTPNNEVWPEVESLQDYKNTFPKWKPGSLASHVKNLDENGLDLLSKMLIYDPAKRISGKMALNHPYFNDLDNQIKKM
UniProt P51946, whole entry partner: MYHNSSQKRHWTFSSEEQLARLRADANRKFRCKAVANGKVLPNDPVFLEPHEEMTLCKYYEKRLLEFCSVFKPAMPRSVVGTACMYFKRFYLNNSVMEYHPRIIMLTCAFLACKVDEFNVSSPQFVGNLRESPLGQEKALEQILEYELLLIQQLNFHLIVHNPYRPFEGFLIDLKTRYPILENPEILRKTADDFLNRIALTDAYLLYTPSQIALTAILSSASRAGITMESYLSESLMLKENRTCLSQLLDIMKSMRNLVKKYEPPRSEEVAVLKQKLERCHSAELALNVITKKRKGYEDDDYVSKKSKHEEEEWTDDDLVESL
UniProt P51948, whole entry partner: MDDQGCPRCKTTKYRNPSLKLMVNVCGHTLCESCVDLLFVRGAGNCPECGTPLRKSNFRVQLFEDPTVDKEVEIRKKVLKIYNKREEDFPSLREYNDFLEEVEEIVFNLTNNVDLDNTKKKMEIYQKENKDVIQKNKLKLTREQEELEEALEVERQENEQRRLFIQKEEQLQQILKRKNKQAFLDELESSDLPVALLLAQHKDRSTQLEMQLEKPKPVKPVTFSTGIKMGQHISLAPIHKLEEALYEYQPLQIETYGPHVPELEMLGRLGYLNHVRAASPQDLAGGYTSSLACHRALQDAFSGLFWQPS
UniProt Q15078, 99-307 partner limits assumed: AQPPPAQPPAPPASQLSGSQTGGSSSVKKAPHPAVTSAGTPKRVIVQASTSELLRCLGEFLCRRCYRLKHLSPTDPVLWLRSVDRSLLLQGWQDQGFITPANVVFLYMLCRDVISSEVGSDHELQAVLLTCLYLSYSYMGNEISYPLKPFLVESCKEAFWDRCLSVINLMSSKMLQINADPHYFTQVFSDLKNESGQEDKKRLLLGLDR
UniProt P14635, whole entry partner: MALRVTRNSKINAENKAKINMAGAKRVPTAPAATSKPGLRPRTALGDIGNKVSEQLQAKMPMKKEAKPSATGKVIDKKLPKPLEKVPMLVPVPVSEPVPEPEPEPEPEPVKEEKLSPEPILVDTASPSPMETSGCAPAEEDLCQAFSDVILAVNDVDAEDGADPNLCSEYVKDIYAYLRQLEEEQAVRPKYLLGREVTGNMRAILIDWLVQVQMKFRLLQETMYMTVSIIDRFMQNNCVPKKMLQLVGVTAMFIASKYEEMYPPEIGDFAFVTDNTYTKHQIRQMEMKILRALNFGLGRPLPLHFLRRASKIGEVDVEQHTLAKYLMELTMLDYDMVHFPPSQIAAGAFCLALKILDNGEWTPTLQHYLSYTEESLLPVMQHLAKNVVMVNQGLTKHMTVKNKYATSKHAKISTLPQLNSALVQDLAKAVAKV

Assays:
OVCAR-3 = OVCAR-3 viability assay (CellTiter-Glo, 72 hours); conditions: read-out: OVCAR-3 viability assay IC50; OVCAR-3 cells
Procedure: (§1) Human […] cell line, MV4-11_(ATCC, Cat #CRL-9591), NSCLC (Non-small cell lung cancer) cell line H460 (ATCC, Cat #HTB-177), A2780 (ECACC, Cat #93112519) and OVCAR-3(ATCC, Cat #HTB-161) were obtained from ATCC. Cells were grown in RPMI-1640 media (Invitrogen, Cat #22400-089) supplemented with 10% FBS (Invitrogen, Cat #10099141) and 1% penicillin/streptomycin (Invitrogen, Cat #15070063) and cultured at 37° C., 5% CO2 in a humidified chamber. All cell lines were routinely tested for mycoplasma.
(§2) To effect of the CDK7 inhibitor to inhibit the growth of target cancer cells, viability assay were conducted a 72 hour time period. Briefly, the candidate cell line was plated in 96 well plate at the following density of cells respectively. 1×10^4 cells/well for MV4-11, 5×10^3 for H460 and OVCAR-3, and 1×10^3 for A2780. After 24 hours, the cells were treated with various concentrations of the compound (ranging from 0.0015 uM to 10 uM). DMSO solvent without compound served as a control and final DMSO concentration lest than 0.1%. After 72 hours of incubation at 37° C., 5% CO2 incubator, cells were analyzed for the viability using the CellTiter-Glo Luminescent Cell Viability Assay (Promega, Cat #G7570). All viability assays were performed in duplicate and Luminescence was read using an Envision (Perkin Elmer, USA). Data was analyzed using XLfit software.

MV4-11 = assay: Cellular MV4-11 viability assay (CellTiter-Glo, 72 hours); conditions: read-out: MV4-11 viability assay IC50; MV4-11 cells
Procedure: as §1, §2

A2780 = A2780 viability assay (CellTiter-Glo, 72 hours); conditions: read-out: A2780 viability assay IC50; A2780 cells
Procedure: as §1, §2

CDK5/p25 = CDK5/p25 (Homo sapiens, UniProt Q00535); assay: Enzymatic assay for CDK5 (LANCE Ultra kinase assay, FRET based); conditions: read-out: CDK5 enzymatic activity IC50; ATP at Km
Procedure: (§3) Enzymatic Binding Assay Protocol for CDK1, CDK2, CDK5 and CDK7
(§4) Inhibition activity of the respective compound on CDK kinase under Km value of ATP was tested in FRET based The LANCE® Ultra kinase assay (Perkin Elmer), which uses a ULight™-labeled peptide substrate and an appropriate Europium-labeled anti-phospho-antibody. Test compounds were made with DMSO solutions, and then 4-fold serial dilutions for 8 doses were prepared using automated liquid handler (POD™ 810, Labcyte) and 80 nL/well of diluted compound solutions were added into the 384-well plates (Greiner, Cat #784075). And then 68 nM of ULight-MBP peptide (Perkin Elmer, Cat #TRF0109-M) and 5 ul/well of ATP (Sigma, Cat #A7699) were added to the plate. After 1 min centrifugation at 1000 rpm, purified CDKs/Cyclin complex were added with the following concentrations respectively. 24 uM for CDK1/Cyclin B (Invitrogen, Cat #PR4768C), 22 uM for CDK2/Cyclin A (Invitrogen, Cat #PV6290), 10 uM for CDK5/p25 (Invitrogen, Cat #PR8543B) and […] for CDK7/Cyclin H/MNAT1 (Invitrogen, Cat #PR6749B) were added to each corresponding plate for CDK1, CDK2, CDK5 and CDK7. […] After additional incubation at 23° C. for 60 min, test articles were measured the fluorescence using Envision leader (Perkin Elmer, USA) [Laser as excitation light; […] as the first and the second emission filter]. Data were analyzed using XL Fit software.

CDK7/Cyclin H/MNAT1 = CDK7/Cyclin H/MNAT1 (Homo sapiens, UniProt P50613); assay: Enzymatic assay for CDK7 (LANCE Ultra kinase assay, FRET based)
CDK1/Cyclin B = CDK1/Cyclin B (Homo sapiens, UniProt P06493); assay: Enzymatic assay for CDK1 (LANCE Ultra kinase assay, FRET based); conditions: read-out: CDK1 enzymatic activity IC50; ATP at Km
CDK2/Cyclin A = CDK2/Cyclin A (Homo sapiens, UniProt P24941); assay: Enzymatic assay for CDK2 (LANCE Ultra kinase assay, FRET based); conditions: read-out: CDK2 enzymatic activity IC50; ATP at Km
Procedure: as §3, §4

In the case of `C/C=C/C(=O)Nc1cccc2ccc(-c3cccc(C)c3CNc3nc(NCC4CCNCC4O)nc4c(C(C)C)cnn34)nc12` (stereo not shown), the IC50 (OVCAR-3) is reported as 1000 to 10000 nM, the IC50 (MV4-11) is reported as 1000 to 10000 nM and the IC50 (A2780) is reported as 1000 to 10000 nM. The IC50 (CDK5/p25) was > 1000 nM, the “CDK1/CDK7: Selectivity of CDK7 inhibition over CDK1 inhibition” value (CDK7/Cyclin H/MNAT1; CDK7 over CDK1) was “A (A indicates [fold] > 500)” and the “CDK2/CDK7: Selectivity of CDK7 inhibition over CDK2 inhibition” value (CDK7/Cyclin H/MNAT1; CDK7 over CDK2) was “A (A indicates [fold] > 500)”. For the same compound, the “CDK5/CDK7: Selectivity of CDK7 inhibition over CDK5 inhibition” value (CDK7/Cyclin H/MNAT1; CDK7 over CDK5) was “A (A indicates [fold] > 500)”, the IC50 (CDK7/Cyclin H/MNAT1; read-out: CDK7 enzymatic activity IC50, ATP at Km) was < 100 nM and the IC50 (CDK1/Cyclin B) was > 1000 nM. For the same compound, the IC50 (CDK2/Cyclin A) was > 1000 nM.
